Test results published in patent US20240336629A1, “Tricyclic Derivatives Useful As PARP7 Inhibitors” (JACOBIO PHARMACEUTICALS CO., LTD., priority 2021, published 2024).
Where “and” joins values, the source holds several entries; their conditions need not be identical. Identical values can stand only once.

By UniProt entry, the sequences of proteins in these tests, tags left out. Residues count along the entry.
UniProt Q7Z3E1, 456-657 limits assumed: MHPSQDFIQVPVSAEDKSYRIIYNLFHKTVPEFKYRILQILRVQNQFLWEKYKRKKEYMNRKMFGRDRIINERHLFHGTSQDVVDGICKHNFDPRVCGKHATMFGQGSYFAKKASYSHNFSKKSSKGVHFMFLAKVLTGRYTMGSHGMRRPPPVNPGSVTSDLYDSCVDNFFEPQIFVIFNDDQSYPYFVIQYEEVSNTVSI

Each compound was assayed against PARP7 enzyme (Homo sapiens (Human), UniProt Q7Z3E1) (assay: PARP7 enzymatic experiment (HTRF assay)). Conditions: read-out: PARP7 Enzyme (IC50 μM), 4PL fit.
Assay type: biochemical
With `C[C@@H](COCCC(=O)N1CCN2c3ncc(C(F)(F)F)cc3OCCC2C1)Nc1cn[nH]c(=O)c1C(F)(F)F` (single isomer, unassigned) [Compound 54A] the IC50 was 0.000726 µM.
With `C[C@@H](COCCC(=O)N1CCN2c3ncc(C(F)(F)F)cc3OCCC2C1)Nc1cn[nH]c(=O)c1C(F)(F)F` (single isomer, unassigned) [Compound 54B] the IC50 was 0.00179 µM.
In the case of `CC1CC2CN(C(=O)CCOC[C@H](C)Nc3cn[nH]c(=O)c3C(F)(F)F)CCN2c2ncc(C(F)(F)F)cc2O1` (single isomer, unassigned) [Compound 62C], the IC50 is reported as 0.00182 µM and 0.00132 µM.
For `CC1CC2CN(C(=O)CCOC[C@H](C)Nc3cn[nH]c(=O)c3C(F)(F)F)CCN2c2ncc(C(F)(F)F)cc2O1` (single isomer, unassigned) [Compound 62A], the IC50 was 0.00153 µM and 0.00177 µM.

These compounds were tested on lung cancer cell line H1373 (high expression of PARP7) (assay: Lung cancer cell proliferation inhibition experiment (CTG method)). Conditions: read-out: H1373 (IC50 μM); H1373 cells, 144 hrs incubation, Cell Titer Glo.
Assay type: cell-based
`C[C@@H](COCCC(=O)N1CCN2c3ncc(C(F)(F)F)cc3OCCC2C1)Nc1cn[nH]c(=O)c1C(F)(F)F` (single isomer, unassigned) [Compound 54A] gave an IC50 of 0.0332 µM.
`C[C@@H](COCCC(=O)N1CCN2c3ncc(C(F)(F)F)cc3OCCC2C1)Nc1cn[nH]c(=O)c1C(F)(F)F` (single isomer, unassigned) [Compound 54B] was tested, and the IC50 was 0.802 µM.
With `CC1CC2CN(C(=O)CCOC[C@H](C)Nc3cn[nH]c(=O)c3C(F)(F)F)CCN2c2ncc(C(F)(F)F)cc2O1` (single isomer, unassigned) [Compound 62B] the IC50 was 0.329 µM.
Compound `CC(=O)c1cnc2c(c1)OCC[C@@H]1CN(C(=O)CCOC[C@H](C)Nc3cn[nH]c(=O)c3C(F)(F)F)CCN21` (single isomer, unassigned) has an IC50 of 0.328 µM.
`C[C@@H](COCCC(=O)N1CCN2c3ncc(Cl)cc3OCC[C@H]2C1)Nc1cn[nH]c(=O)c1C(F)(F)F` (single isomer, unassigned) was tested, and the IC50 was 0.615 µM.
`C[C@@H](COCCC(=O)N1CCN2c3ncc(Cl)cc3OCC[C@@H]2C1)Nc1cn[nH]c(=O)c1C(F)(F)F` (single isomer, unassigned) gave an IC50 of 0.0289 µM.
`Cc1cnc2c(c1)OCC[C@H]1CN(C(=O)CCOC[C@H](C)Nc3cn[nH]c(=O)c3C(F)(F)F)CCN21` (single isomer, unassigned) was tested, and the IC50 was 0.104 µM.
With `C[C@@H](COCCC(=O)N1CCN2c3ncc(C(F)(F)F)cc3NCCC2C1)Nc1cn[nH]c(=O)c1C(F)(F)F` (single isomer, unassigned) [Compound 37B] the IC50 was 0.086 µM.
